# Source: US10815246B2, “Thailanstatin analogs” (priority 2017, dated 2020)
# Tested on: NCI-N87 human gastric cancer xenografts
# Assay: In vivo efficacy study, subcutaneous NCI-N87 human gastric cancer xenografts
# Parameters: species or system female Balb/c nude mice
substance,measurement,setting,value
ado-trastuzumab emtansine [Kadcyla],Avg tumor volume,"Group 7, 10 mg/kg single dose i.v., Study Day 6",219.52 mm^3
same,Avg tumor volume,"Group 7, 10 mg/kg single dose i.v., Study Day 9",286.58 mm^3
same,Avg tumor volume,"Group 7, 10 mg/kg single dose i.v., Study Day 15",68.93 mm^3
same,Avg tumor volume,"Group 7, 10 mg/kg single dose i.v., Study Day 19",32.84 mm^3
same,Avg tumor volume,"Group 7, 10 mg/kg single dose i.v., Study Day 21",34.57 mm^3
same,Avg tumor volume,"Group 7, 10 mg/kg single dose i.v., Study Day 23",32.3 mm^3
same,Avg tumor volume,"Group 7, 10 mg/kg single dose i.v., Study Day 25",31.49 mm^3
same,Avg tumor volume,"Group 7, 10 mg/kg single dose i.v., Study Day 27",30.89 mm^3
same,Avg tumor volume,"Group 7, 10 mg/kg single dose i.v., Study Day 29",29.62 mm^3
same,Avg tumor volume,"Group 7, 10 mg/kg single dose i.v., Study Day 31",28.64 mm^3
same,Avg tumor volume,"Group 8, 3 mg/kg Q4*4 i.v., Study Day 6",218.77 mm^3
same,Avg tumor volume,"Group 8, 3 mg/kg Q4*4 i.v., Study Day 9",262.41 mm^3
same,Avg tumor volume,"Group 8, 3 mg/kg Q4*4 i.v., Study Day 12",148.62 mm^3
same,Avg tumor volume,"Group 8, 3 mg/kg Q4*4 i.v., Study Day 19",61.32 mm^3
same,Avg tumor volume,"Group 8, 3 mg/kg Q4*4 i.v., Study Day 21",56.15 mm^3
same,Avg tumor volume,"Group 8, 3 mg/kg Q4*4 i.v., Study Day 23",64.71 mm^3
same,Avg tumor volume,"Group 8, 3 mg/kg Q4*4 i.v., Study Day 25",63.69 mm^3
same,Avg tumor volume,"Group 8, 3 mg/kg Q4*4 i.v., Study Day 27",60.18 mm^3
same,Avg tumor volume,"Group 8, 3 mg/kg Q4*4 i.v., Study Day 29",53.7 mm^3
same,Avg tumor volume,"Group 8, 3 mg/kg Q4*4 i.v., Study Day 31",48 mm^3
same,Effect on tumor volume subsequent to treatment (in words),"all dose levels and schedules tested for the substance, i.v.",reduced tumor volume
